The subject of the data set is cheek of sensory person (who has sensitive skin). The data set is described as follows: Sensory Irritation Test. The format is in vivo, human. Conditions: for Evaluation (sensory irritation): 3 mass % sample aqueous solution, 1 mL on cheek, ten minutes, n=2 (Table 4); for sensory irritation (Tables 4 and 5): 3 mass %, test subject with sensitive skin.

With “N-acetyl-N′,N″-dimethyl-L-glutamic acid-1,5-diamide”, the “Evaluation (sensory irritation)” value is reported as “A (Average rating is less than 0.2)”.

Consider “N-benzoyl-N′-methyl-L-glutamic acid-1-amide”, for which the “Evaluation (sensory irritation)” value was “A (Average rating is less than 0.2)”; the “sensory irritation (Tables 4 and 5)” value is reported as “had no problem in sensory irritation”.

“N-acetyl-L-glutamic acid 1-piperidine amide”: the “Evaluation (sensory irritation)” value was “A (Average rating is less than 0.2)”.

As to “N-benzoyl-N′-n-propyl-L-glutamic acid-1-amide”, the “Evaluation (sensory irritation)” value is reported as “A (Average rating is less than 0.2)”.

For “N-acetyl-N′,N′,N″,N″-tetraethyl-L-glutamic acid-1,5-diamide”, the “Evaluation (sensory irritation)” value is recorded as “A (Average rating is less than 0.2)”; the “sensory irritation (Tables 4 and 5)” value is “had no problem in sensory irritation”.

Take “N-acetyl-L-glutamic acid bis-1,5-piperidine amide”: the “sensory irritation (Tables 4 and 5)” value is “had no problem in sensory irritation”.

In the case of “N-benzoyl-L-glutamic acid 1-morpholine amide”, the “Evaluation (sensory irritation)” value is reported as “A (Average rating is less than 0.2)”.

Consider “N-acetyl-N′-ethyl-L-glutamic acid-1-amide”, for which the “Evaluation (sensory irritation)” value was “A (Average rating is less than 0.2)”.

Turning to “N-acetyl-N′-benzyl-L-glutamic acid-1-amide”, the “Evaluation (sensory irritation)” value is reported as “A (Average rating is less than 0.2)”.

As to “N-acetyl-N′-methyl-L-glutamic acid-1-amide”, the “Evaluation (sensory irritation)” value is listed as “A (Average rating is less than 0.2)”.

Consider “N-acetyl-N′-cyclohexyl-L-glutamic acid-1-amide”, for which the “Evaluation (sensory irritation)” value is “A (Average rating is less than 0.2)”.

For “N-acetyl-N′-cyclopentyl-L-glutamic acid-1-amide”, the “sensory irritation (Tables 4 and 5)” value is recorded as “had no problem in sensory irritation”.

Regarding “N-acetyl-N′,N′,N″,N″-tetramethyl-L-glutamic acid-1,5-diamide”, the “sensory irritation (Tables 4 and 5)” value was “had no problem in sensory irritation”.
